Patent publication US9242993B2, “Morpholino substituted bicyclic pyrimidine urea or carbamate derivatives as mTOR inhibitors” (CELLZOME LIMITED, priority 2011, dated 2016)

Chains of the proteins cited; added tags and fusions are not shown. Lines headed by an entry give the natural chain unless they say otherwise; changes in a name come on top.
UniProt P42336, whole entry: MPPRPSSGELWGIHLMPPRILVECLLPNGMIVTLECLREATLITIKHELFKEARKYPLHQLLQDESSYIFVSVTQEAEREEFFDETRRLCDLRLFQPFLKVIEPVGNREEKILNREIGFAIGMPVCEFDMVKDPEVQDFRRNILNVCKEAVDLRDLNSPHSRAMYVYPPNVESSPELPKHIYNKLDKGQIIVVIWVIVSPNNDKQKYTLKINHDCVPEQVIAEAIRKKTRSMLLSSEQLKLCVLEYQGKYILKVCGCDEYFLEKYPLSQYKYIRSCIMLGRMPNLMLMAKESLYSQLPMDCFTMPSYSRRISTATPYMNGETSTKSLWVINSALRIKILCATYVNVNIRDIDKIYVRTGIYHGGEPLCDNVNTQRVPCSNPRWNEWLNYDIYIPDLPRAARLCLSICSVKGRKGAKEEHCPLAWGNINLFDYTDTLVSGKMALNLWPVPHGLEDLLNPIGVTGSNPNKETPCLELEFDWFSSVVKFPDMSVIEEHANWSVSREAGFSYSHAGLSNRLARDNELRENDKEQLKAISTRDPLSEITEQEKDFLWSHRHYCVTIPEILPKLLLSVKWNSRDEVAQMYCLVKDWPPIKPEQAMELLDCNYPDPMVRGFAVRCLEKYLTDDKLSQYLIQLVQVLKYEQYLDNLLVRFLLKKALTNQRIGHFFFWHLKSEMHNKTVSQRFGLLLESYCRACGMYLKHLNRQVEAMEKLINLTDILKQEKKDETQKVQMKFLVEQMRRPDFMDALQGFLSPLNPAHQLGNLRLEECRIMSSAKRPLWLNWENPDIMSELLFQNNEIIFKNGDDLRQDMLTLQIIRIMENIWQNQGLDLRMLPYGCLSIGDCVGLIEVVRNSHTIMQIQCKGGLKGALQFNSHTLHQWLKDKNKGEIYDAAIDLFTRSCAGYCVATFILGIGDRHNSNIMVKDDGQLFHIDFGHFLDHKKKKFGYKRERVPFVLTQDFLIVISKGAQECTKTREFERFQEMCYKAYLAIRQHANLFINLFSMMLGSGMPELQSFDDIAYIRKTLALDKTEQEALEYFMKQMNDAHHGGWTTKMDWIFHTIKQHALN
UniProt P42338: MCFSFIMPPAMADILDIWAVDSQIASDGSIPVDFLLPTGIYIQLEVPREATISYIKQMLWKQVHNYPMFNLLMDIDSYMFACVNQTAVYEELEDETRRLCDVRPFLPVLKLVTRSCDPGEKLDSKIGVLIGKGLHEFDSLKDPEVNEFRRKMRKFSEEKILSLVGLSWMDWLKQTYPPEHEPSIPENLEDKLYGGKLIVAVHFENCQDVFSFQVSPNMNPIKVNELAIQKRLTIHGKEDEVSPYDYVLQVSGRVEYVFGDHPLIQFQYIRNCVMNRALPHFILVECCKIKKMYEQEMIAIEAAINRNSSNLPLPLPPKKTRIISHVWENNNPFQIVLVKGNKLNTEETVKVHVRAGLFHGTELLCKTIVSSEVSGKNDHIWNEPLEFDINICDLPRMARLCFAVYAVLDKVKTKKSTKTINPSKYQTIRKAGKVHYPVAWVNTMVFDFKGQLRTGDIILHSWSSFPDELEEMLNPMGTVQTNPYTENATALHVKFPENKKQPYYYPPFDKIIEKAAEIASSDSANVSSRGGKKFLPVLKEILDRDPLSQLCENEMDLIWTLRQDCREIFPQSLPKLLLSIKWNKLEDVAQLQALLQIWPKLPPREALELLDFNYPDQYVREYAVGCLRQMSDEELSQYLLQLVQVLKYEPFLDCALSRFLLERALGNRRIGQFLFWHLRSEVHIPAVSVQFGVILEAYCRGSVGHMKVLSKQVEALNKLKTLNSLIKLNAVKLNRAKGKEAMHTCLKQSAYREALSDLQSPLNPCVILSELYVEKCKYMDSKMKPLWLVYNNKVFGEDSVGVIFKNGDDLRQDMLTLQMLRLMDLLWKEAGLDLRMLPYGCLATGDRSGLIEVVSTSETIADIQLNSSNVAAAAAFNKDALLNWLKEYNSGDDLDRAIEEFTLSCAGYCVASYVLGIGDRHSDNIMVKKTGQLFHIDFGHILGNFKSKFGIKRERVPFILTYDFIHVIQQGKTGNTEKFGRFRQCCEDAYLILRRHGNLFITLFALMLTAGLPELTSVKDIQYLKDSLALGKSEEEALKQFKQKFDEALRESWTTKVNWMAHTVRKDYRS
UniProt P48736: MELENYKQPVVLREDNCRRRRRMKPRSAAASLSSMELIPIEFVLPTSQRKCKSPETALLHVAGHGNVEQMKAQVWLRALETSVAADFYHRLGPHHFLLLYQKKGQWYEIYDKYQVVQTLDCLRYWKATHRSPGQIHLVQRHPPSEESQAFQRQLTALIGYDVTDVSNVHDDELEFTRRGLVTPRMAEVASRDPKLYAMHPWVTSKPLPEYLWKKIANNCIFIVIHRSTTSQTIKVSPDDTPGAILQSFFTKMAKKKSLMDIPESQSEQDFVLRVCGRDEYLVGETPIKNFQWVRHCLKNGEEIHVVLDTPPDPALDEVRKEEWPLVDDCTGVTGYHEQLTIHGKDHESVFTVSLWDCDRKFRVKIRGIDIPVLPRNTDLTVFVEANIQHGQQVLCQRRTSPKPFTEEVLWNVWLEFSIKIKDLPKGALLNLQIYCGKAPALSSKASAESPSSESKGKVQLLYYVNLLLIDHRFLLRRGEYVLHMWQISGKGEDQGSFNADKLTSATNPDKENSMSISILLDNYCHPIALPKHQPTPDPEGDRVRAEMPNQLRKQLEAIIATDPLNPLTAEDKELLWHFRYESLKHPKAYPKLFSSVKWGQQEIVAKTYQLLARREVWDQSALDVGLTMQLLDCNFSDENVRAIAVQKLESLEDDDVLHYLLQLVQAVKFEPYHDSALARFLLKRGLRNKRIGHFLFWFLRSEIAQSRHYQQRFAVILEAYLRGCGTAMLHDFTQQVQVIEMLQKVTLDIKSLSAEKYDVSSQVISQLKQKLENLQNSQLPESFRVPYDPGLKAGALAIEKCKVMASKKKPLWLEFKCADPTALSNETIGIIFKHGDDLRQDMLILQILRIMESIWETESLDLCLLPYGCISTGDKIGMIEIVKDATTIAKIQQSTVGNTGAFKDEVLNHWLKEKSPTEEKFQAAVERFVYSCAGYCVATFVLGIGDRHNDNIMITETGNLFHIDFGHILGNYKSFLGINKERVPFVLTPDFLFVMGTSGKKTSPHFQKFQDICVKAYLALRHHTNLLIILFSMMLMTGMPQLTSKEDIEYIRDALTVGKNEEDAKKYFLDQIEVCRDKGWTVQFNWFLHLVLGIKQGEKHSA
UniProt O00329: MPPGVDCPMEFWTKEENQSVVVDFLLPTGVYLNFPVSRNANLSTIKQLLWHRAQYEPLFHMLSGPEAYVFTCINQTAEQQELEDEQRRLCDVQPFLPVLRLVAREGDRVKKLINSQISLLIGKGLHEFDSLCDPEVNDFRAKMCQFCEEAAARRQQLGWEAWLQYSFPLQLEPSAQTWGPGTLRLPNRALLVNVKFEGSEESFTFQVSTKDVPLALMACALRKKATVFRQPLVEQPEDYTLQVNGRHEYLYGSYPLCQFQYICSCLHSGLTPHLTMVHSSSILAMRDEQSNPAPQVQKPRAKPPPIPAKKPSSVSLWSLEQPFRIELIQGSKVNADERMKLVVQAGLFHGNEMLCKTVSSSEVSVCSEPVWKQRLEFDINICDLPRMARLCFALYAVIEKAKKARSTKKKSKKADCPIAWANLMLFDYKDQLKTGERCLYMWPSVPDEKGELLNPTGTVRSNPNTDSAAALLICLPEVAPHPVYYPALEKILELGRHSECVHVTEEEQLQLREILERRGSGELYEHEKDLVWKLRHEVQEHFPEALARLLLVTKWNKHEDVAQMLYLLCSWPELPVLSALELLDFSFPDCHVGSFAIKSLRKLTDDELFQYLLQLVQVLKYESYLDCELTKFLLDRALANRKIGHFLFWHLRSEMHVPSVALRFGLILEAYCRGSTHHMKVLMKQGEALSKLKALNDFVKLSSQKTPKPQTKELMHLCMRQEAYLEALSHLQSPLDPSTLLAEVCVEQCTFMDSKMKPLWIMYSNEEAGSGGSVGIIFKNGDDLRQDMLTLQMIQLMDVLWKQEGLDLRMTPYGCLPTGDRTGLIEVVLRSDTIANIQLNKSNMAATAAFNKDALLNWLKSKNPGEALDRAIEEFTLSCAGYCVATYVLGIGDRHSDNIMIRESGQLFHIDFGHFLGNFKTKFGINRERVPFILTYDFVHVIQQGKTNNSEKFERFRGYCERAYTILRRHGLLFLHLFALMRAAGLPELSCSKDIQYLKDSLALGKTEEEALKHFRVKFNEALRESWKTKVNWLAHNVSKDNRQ

What was measured:
Type in all cases: binding
[1] = biological target: PI3K alpha (PI3Ka) (Homo sapiens, UniProt P42336); assay: kinobeads assay, PI3K alpha; conditions: Jurkat cell lysate, read-out: PI3Ka inhibition value (IC50), activity level
[2] = biological target: PI3K beta (PI3 Kb) (Homo sapiens, UniProt P42338); assay: kinobeads assay, PI3K beta; conditions: Jurkat cell lysate
[3] = biological target: PI3K gamma (PI3 Kg) (Homo sapiens, UniProt P48736); assay: kinobeads assay, PI3K gamma; conditions: Jurkat cell lysate, read-out: PI3Kg inhibition value (IC50), activity level
[4] = biological target: PI3K delta (PI3 Kd) (Homo sapiens, UniProt O00329); assay: kinobeads assay, PI3K delta; conditions: Jurkat cell lysate
[5] = read-out: PI3Kb inhibition value (IC50), activity level
[6] = read-out: PI3Kd inhibition value (IC50), activity level

IC50 [1] [µM]	IC50 [2, 5] [µM]	IC50 [3] [µM]	IC50 [4, 6] [µM]	IC50 ([2]; read-out: PI3Kb inhibition value (IC50), numeric bound) [µM]	IC50 ([4]; read-out: PI3Kd inhibition value (IC50), numeric bound) [µM]	SMILES
> 10	> 10	> 10	> 10			O=C(NCCO)Nc1ccc(-c2nc3c(c(N4CC5CCC(C4)O5)n2)CS(=O)(=O)C3)cc1 [Example 16, 1-(4-(4-(8-oxa-3-azabicyclo[3.2.1]octan-3-yl)-6,6-dioxido-5,7-dihydrothieno[3,4-d]pyrimidin-2-yl)phenyl)-3-(2-hydroxyethyl)urea]
1 to 10				> 3	> 3	C[C@@H]1c2c(nc(-c3ccc(NC(=O)NC4CC4)cc3)nc2N2CCOC[C@@H]2C)CS1(=O)=O (single isomer, unassigned) [Example 9]
> 10	> 10	> 10	> 10			CCNC(=O)Nc1ccc(-c2nc3c(c(N4CCOC[C@@H]4CC)n2)[C@@H](C)S(=O)(=O)C3)cc1 [Example 52, 1-ethyl-3-(4-((R)-4-((S)-3-ethylmorpholino)-5-methyl-6,6-dioxido-5,7-dihydrothieno[3,4-d]pyrimidin-2-yl)phenyl)urea]
> 10	> 10	> 10	> 10			C[C@H]1COCCN1c1nc(-c2ccc(NC(=O)NC3CC3)cc2)nc2c1S(=O)(=O)C(C)(C)C2 [Example 37, (S)-1-cyclopropyl-3-(4-(6,6-dimethyl-4-(3-methylmorpholino)-5,5-dioxido-6,7-dihydrothieno[3,2-d]pyrimidin-2-yl)phenyl)urea]
> 10	> 10	> 10	> 10			C[C@@H]1COCCN1c1nc(-c2ccc(NC(=O)NC3CC3)cc2)nc2c1[C@H](C)S(=O)(=O)C2 [Example 63, 1-cyclopropyl-3-(4-((S)-5-methyl-4-((R)-3-methylmorpholino)-6,6-dioxido-5,7-dihydrothieno[3,4-d]pyrimidin-2-yl)phenyl)urea]
1 to 10	1 to 10	> 10	> 10			CC1c2c(nc(-c3ccc(NC(=O)NCC4CC4)cc3)nc2N2CCOC[C@@H]2C)CS1(=O)=O (stereo partly drawn) [Example 46, 1-(cyclopropylmethyl)-3-(4-(5-methyl-4-((S)-3-methylmorpholino)-6,6-dioxido-5,7-dihydrothieno[3,4-d]pyrimidin-2-yl)phenyl)urea]
> 10	> 10	> 10	> 10			CCNC(=O)Nc1ccc(-c2nc3c(c(N4CCOC[C@@H]4C)n2)C(C)S(=O)(=O)C3)cc1F (stereo partly drawn) [Example 50, 1-ethyl-3-(2-fluoro-4-(5-methyl-4-((S)-3-methylmorpholino)-6,6-dioxido-5,7-dihydrothieno[3,4-d]pyrimidin-2-yl)phenyl)urea]
> 10	> 10	> 10	> 10			CC[C@H]1COCCN1c1nc(-c2ccc(NC(=O)NC3CC3)cc2)nc2c1C(C)S(=O)(=O)C2 (stereo partly drawn) [Example 47, 1-cyclopropyl-3-(4-(4-((S)-3-ethylmorpholino)-5-methyl-6,6-dioxido-5,7-dihydrothieno[3,4-d]pyrimidin-2-yl)phenyl)urea]
> 10	> 10	> 10	> 10			CC1Cc2nc(-c3ccc(NC(=O)NC4CC4)cc3)nc(N3CCOC[C@@H]3C)c2CS1(=O)=O (stereo partly drawn) [Example 71, 1-cyclopropyl-3-(4-(7-methyl-4-((S)-3-methylmorpholino)-6,6-dioxido-7,8-dihydro-5H-thiopyrano[4,3-d]pyrimidin-2-yl)phenyl)urea]
1 to 10	> 10	> 10	> 10			CC[C@H]1COCCN1c1nc(-c2ccc(NC(=O)NC)c(F)c2)nc2c1CS(=O)(=O)C2(C)C [Example 64, (S)-1-(4-(4-(3-ethylmorpholino)-7,7-dimethyl-6,6-dioxido-5,7-dihydrothieno[3,4-d]pyrimidin-2-yl)-2-fluorophenyl)-3-methylurea]
> 10	> 10	> 10	> 10			CNC(=O)Nc1ccc(-c2nc(N3CCOC[C@@H]3C)c3c(n2)C(C)(C)S(=O)(=O)C3)c(F)c1 [Example 66, (S)-1-(4-(7,7-dimethyl-4-(3-methylmorpholino)-6,6-dioxido-5,7-dihydrothieno[3,4-d]pyrimidin-2-yl)-3-fluorophenyl)-3-methylurea]
> 10	> 10	> 10	> 10			CCNC(=O)Nc1ccc(-c2nc3c(c(N4CCOC[C@@H]4C)n2)CS(=O)(=O)C(C)(C)C3)cc1 [Example 73, (S)-1-(4-(7,7-dimethyl-4-(3-methylmorpholino)-6,6-dioxido-7,8-dihydro-5H-thiopyrano[4,3-d]pyrimidin-2-yl)phenyl)-3-ethylurea]
> 10	> 10	> 10	> 10			CNC(=O)Nc1ccc(-c2nc3c(c(N4CCOC[C@@H]4C)n2)C(C)S(=O)(=O)C3)cc1 (stereo partly drawn) [Example 58, 1-methyl-3-(4-(5-methyl-4-((S)-3-methylmorpholino)-6,6-dioxido-5,7-dihydrothieno[3,4-d]pyrimidin-2-yl)phenyl)urea]
> 10	> 10	> 10	> 10			CC1c2c(nc(-c3ccc(NC(=O)NC4CC4)cc3)nc2N2CCOC[C@@H]2C)CCS1(=O)=O (stereo partly drawn) [Example 74, 1-cyclopropyl-3-(4-(5-methyl-4-((S)-3-methylmorpholino)-6,6-dioxido-7,8-dihydro-5H-thiopyrano[4,3-d]pyrimidin-2-yl)phenyl)urea]
> 10	> 10	> 10	> 10			CCNC(=O)Nc1ccc(-c2nc3c(c(N4CCOC[C@@H]4CC)n2)[C@H](C)S(=O)(=O)C3)cc1 [Example 53, 1-ethyl-3-(4-((S)-4-((S)-3-ethylmorpholino)-5-methyl-6,6-dioxido-5,7-dihydrothieno[3,4-d]pyrimidin-2-yl)phenyl)urea]
> 10	> 10	> 10	> 10			C[C@H]1COCCN1c1nc(-c2ccc(NC(=O)NCCF)cc2)nc2c1CS(=O)(=O)C2 [Example 14, (S)-1-(2-fluoroethyl)-3-(4-(4-(3-methylmorpholino)-6,6-dioxido-5,7-dihydrothieno[3,4-d]pyrimidin-2-yl)phenyl)urea]
> 10	> 10	> 10	> 10			CCNC(=O)Nc1ccc(-c2nc(N3CCOC[C@@H]3CC)c3c(n2)C(C)(C)S(=O)(=O)C3)cc1 [Example 56, (S)-1-ethyl-3-(4-(4-(3-ethylmorpholino)-7,7-dimethyl-6,6-dioxido-5,7-dihydrothieno[3,4-d]pyrimidin-2-yl)phenyl)urea]
> 10	> 10	> 10	> 10			CCNC(=O)Nc1ccc(-c2nc(N3CCOC[C@@H]3C)c3c(n2)C(C)(C)S(=O)(=O)C3C)cc1 (stereo partly drawn) [Example 42, 1-ethyl-3-(4-(5,7,7-trimethyl-4-((S)-3-methylmorpholino)-6,6-dioxido-5,7-dihydrothieno[3,4-d]pyrimidin-2-yl)phenyl)urea]
> 10	> 10	> 10	> 10			C[C@H]1COCCN1c1nc(-c2ccc(NC(=O)NCCF)cc2)nc2c1CS(=O)(=O)C2(C)C [Example 61, (S)-1-(4-(7,7-dimethyl-4-(3-methylmorpholino)-6,6-dioxido-5,7-dihydrothieno[3,4-d]pyrimidin-2-yl)phenyl)-3-(2-fluoroethyl)urea]
	> 10	> 10	> 10			CCNC(=O)Nc1ccc(-c2nc3c(c(N4CCOC[C@@H]4C)n2)CS(=O)(=O)C3)cc1 [Example 11, (S)-1-ethyl-3-(4-(4-(3-methylmorpholino)-6,6-dioxido-5,7-dihydrothieno[3,4-d]pyrimidin-2-yl)phenyl)urea]

SMILES	IC50 [1] [µM]	IC50 [2, 5] [µM]	IC50 [3] [µM]	IC50 [4, 6] [µM]	IC50 ([2]; read-out: PI3Kb inhibition value (IC50), numeric bound) [µM]	IC50 ([4]; read-out: PI3Kd inhibition value (IC50), numeric bound) [µM]
CCNC(=O)Nc1ccc(-c2nc(N3CCOC[C@H]3C)c3c(n2)C(C)(C)S(=O)(=O)C3)cc1 [Example 55, (R)-1-(4-(7,7-dimethyl-4-(3-methylmorpholino)-6,6-dioxido-5,7-dihydrothieno[3,4-d]pyrimidin-2-yl)phenyl)-3-ethylurea]	1 to 10	> 10	> 10	> 10		
CCNC(=O)Nc1ccc(-c2nc(N3CCOC[C@@H]3C)c3c(n2)C(C)(C)S(=O)(=O)C3)cc1 [Example 62, (S)-1-(4-(7,7-dimethyl-4-(3-methylmorpholino)-6,6-dioxido-5,7-dihydrothieno[3,4-d]pyrimidin-2-yl)phenyl)-3-ethylurea]	> 10	> 10	> 10	> 10		
CCNC(=O)Nc1ccc(-c2nc(N3C4CCC3COC4)c3c(n2)C(C)(C)S(=O)(=O)C3)cc1 [Example 60, 1-(4-(4-(3-oxa-8-azabicyclo[3.2.1]octan-8-yl)-7,7-dimethyl-6,6-dioxido-5,7-dihydrothieno[3,4-d]pyrimidin-2-yl)phenyl)-3-ethylurea]	> 10	> 10	> 10	> 10		
CC1(C)c2nc(-c3ccc(NC(=O)NC4CC4)cc3)nc(N3C4CCC3COC4)c2CS1(=O)=O [Example 59, 1-(4-(4-(3-oxa-8-azabicyclo[3.2.1]octan-8-yl)-7,7-dimethyl-6,6-dioxido-5,7-dihydrothieno[3,4-d]pyrimidin-2-yl)phenyl)-3-cyclopropylurea]	> 10	> 10	> 10	> 10		

Like-named read-outs stand apart in the source and are kept apart here.
